Measurements from patent publication US20220281918A1, “PBP BINDING BICYCLIC PEPTIDE LIGANDS” (BicycleTx Limited, priority 2019, published 2022).

T1: E. coli PBP1b (Escherichia coli, UniProt P02919)
T1 sequence (P02919 1-844): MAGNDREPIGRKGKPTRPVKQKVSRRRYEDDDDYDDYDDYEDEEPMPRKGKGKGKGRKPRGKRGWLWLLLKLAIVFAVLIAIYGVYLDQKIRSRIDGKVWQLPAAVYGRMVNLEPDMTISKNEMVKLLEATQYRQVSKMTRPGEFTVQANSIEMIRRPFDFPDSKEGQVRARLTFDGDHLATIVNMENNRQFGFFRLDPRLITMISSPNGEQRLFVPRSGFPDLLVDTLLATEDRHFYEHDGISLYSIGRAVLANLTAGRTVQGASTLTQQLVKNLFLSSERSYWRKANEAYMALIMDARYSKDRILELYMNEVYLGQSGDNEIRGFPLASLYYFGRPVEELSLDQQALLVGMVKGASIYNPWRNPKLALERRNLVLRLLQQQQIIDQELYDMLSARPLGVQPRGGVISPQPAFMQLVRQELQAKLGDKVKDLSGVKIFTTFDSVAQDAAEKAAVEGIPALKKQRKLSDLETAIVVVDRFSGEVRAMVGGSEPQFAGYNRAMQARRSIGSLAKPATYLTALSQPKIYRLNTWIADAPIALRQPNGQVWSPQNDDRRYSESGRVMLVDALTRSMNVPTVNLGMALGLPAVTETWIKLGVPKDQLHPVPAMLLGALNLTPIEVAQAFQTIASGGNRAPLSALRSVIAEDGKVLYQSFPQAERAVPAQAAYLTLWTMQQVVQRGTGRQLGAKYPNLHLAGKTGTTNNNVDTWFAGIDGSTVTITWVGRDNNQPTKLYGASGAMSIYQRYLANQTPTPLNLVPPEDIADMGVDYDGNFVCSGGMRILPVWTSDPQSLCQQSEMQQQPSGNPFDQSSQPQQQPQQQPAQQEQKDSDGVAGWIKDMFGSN

T2: PBP3 of E. coli (E. coli, UniProt P0AD68 57-577, limits assumed)
T2 construct: also called E. coli PBP3; FtsI
T2 sequence (looked up): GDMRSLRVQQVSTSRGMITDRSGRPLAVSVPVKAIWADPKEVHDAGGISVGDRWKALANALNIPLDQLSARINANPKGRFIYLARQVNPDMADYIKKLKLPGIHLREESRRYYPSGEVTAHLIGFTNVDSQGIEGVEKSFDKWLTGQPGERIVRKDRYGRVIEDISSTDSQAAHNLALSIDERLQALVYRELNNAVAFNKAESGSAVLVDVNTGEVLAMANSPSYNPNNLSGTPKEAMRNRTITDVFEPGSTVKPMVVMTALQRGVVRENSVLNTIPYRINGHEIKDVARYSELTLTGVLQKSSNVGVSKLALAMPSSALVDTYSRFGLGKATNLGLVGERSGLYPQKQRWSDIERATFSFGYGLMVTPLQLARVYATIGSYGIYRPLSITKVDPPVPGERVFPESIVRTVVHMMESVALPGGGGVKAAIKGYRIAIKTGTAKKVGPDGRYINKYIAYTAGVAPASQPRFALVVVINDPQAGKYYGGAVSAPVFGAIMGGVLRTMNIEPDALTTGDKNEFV

B1: BCY12132 (unlabelled, unmodified peptide) (peptide)
peptide: ACRTFGCWWEGCA
modifications: Ci, Cii and Ciii cyclised with TATA scaffold
notes: Bicyclic peptide
B2: BCY12130 (unlabelled, unmodified peptide) (peptide)
peptide: ACSFPKCPWVEGCA
modifications: Ci, Cii and Ciii cyclised with TATA scaffold
notes: Bicyclic peptide

Tests used:
[1] = biological target: T1, E. coli PBP1b; test: Fluorescence polarisation direct binding assay, PBP 1b; conditions: PBP Tested 1b; fluorescein-labelled peptide (Sar6-Lysine linker, C-terminus)
Protocol: Fluorescence polarisation was carried out using fluorescein-labelled peptides with unmodified PBP protein and measured using a PHERAstar FS by BMG Labtech fitted with a FP 485 520 520 optic module.
Fluorescent peptides at 10 mM in DMSO were diluted to 2.5 nM in binding buffer (10 mM HEPES, pH8, 300 mM NaCl, 2% glycerol). A two-fold dilution series of PBP protein was then prepared across 12 wells in binding buffer, with the highest concentration being 21 μM, and the lowest concentration being 17 nM.
10 μl diluted fluorescent peptide (2.5 nM) was added into 12 wells of a 384-Well NBS™ Low Volume Microplate (Fisher Scientific). 10 μl PBP dilution series was then added to the wells containing the fluorescent peptide, and 5 μl binding buffer was added to bring the total volume to 25 μl and the final concentration of peptide tracer to 1 nM. A control well lacking PBP protein was prepared with a final peptide concentration of 1 nM to a final volume of 25 μl in binding buffer. Fluorescence polarisation was measured every 5 minutes for a period of one hour at room temperature. The gain and focal height were optimised using the control well lacking protein. Wells were excited at 485 nm, and emission detection was set at 520 nm.
Data were analysed in GraphPad software to derive values for the dissociation constant. Experiments were repeated at least three times. […]

[2] = biological target: T2, PBP3 of E. coli; test: fluorescence polarisation competition; unlabelled peptide against BODIPY-penicillin (Bocillin) tracer, PBP at 800 nM

Molecule | Kd [1] [nM] | Ki [2] [nM]
A-(SEQ ID NO: 32)-A [BCY14619] | 49 | –
B1 | – | 570
B2 | – | 240
